Experimental data reported in patent US9174997B2, “4-(4-cyano-2-thioaryl)dihydropyrimidinones and use thereof” (Bayer Intellectual Property GmbH, priority 2007, dated 2015).

By UniProt entry, the sequences of proteins in these tests, tags left out. Residues count along the entry.
UniProt P08246, 30-267: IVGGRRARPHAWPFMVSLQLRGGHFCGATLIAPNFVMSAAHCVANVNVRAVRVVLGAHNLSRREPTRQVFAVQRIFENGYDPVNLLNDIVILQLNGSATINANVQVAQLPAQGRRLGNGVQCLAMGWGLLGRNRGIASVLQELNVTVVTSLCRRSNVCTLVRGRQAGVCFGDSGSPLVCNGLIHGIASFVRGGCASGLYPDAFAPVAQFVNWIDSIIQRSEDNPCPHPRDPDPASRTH

Target: human neutrophil elastase (HNE) (Homo sapiens (Human), UniProt P08246)
Test: In vitro HNE inhibition assay
Type: biochemical
Protocol: B-1. In Vitro HNE Inhibition Assay
The potency of the compounds of the invention is ascertained in an in vitro inhibition assay. The HNE-mediated amidolytic cleavage of a suitable peptide substrate leads in this connection to an increase in the fluorescent light. The signal intensity of the fluorescent light is directly proportional to the enzyme activity.
Enzyme ([…]; from Serva, Heidelberg) and substrate (20 μM MeOSuc-Ala-Ala-Pro-Val-AMC; from Bachem, Weil am Rhein) are incubated in an assay volume of in total 50 μl of assay buffer (0.1 M HEPES pH 7.4, 0.5 M NaCl, 0.1% w/v BSA, 1% v/v DMSO) in a 384-well microtiter plate in the presence and absence of the test substance at 37° C. for 2 hours. […] The IC50 values are determined by plotting the intensity of the fluorescent light against the active substance concentration.

Molecule `CC1=C(C#N)[C@@H](c2ccc(C#N)cc2S(C)(=O)=O)N(C)C(=O)N1c1cccc(C(F)(F)F)c1` [Example 33, (4S)-4-[4-Cyano-2-(methylsulfonyl)phenyl]-3,6-dimethyl-2-oxo-1-[3-(trifluoromethyl)phenyl]-1,2,3,4-tetrahydropyrimidine-5-carbonitrile] has an IC50 of under 0.3 nM.
